# Permeability data for macrocyclic peptides

Collected by the curators of CycPeptMPDB (Li et al. 2023) from Kelly et al. 2021, doi:10.1021/jacs.0c06115.

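Lipid, pH, incubation time, direction and concentration are not recorded in the data file. Other peptides of the study may be missing here. Entries at the database's floor value (log10 P of -10) are not listed.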

PAMPA measures passive passage through an artificial lipid membrane.
Permeability is given as log10 of P in cm/s; higher (less negative) is more permeable.

PAMPA (log10 cm/s) | structure (SMILES)
-6.57 | CC(=O)N1CCC[C@H]1C(=O)N(C)[C@H](CC(C)C)C(=O)N[C@@H]1C(=O)N[C@@H](CC(C)C)C(=O)N[C@@H](CC(C)C)C(=O)N[C@H](CC(C)C)C(=O)N[C@@H](C)C(=O)N[C@@H](CC(C)C)C(=O)N2CCC[C@@H]2C(=O)O[C@@H]1C
-5.71 | CC(=O)N1CCC[C@@H]1C(=O)N(C)[C@@H](CC(C)C)C(=O)N[C@@H]1C(=O)N(C)[C@H](CC(C)C)C(=O)N[C@H](CC(C)C)C(=O)N(C)[C@H](CC(C)C)C(=O)N(C)[C@H](C)C(=O)N[C@H](CC(C)C)C(=O)N2CCC[C@H]2C(=O)O[C@@H]1C
-5.12 | CC(=O)N1CCC[C@H]1C(=O)N[C@@H]1C(=O)N[C@H](CC(C)C)C(=O)N(C)[C@@H](CC(C)C)C(=O)N(C)[C@H](CC(C)C)C(=O)N(C)[C@@H](CC(C)C)C(=O)N(C)[C@@H](C)C(=O)N[C@@H](CC(C)C)C(=O)N2CCC[C@@H]2C(=O)O[C@@H]1C
-8.40 | CC(=O)N1CCC[C@@H]1C(=O)N(C)[C@H](CC(C)C)C(=O)N[C@@H]1C(=O)N[C@@H](CC(C)C)C(=O)N[C@@H](CC(C)C)C(=O)N[C@@H](CC(C)C)C(=O)N[C@@H](C)C(=O)N[C@H](CC(C)C)C(=O)N2CCC[C@@H]2C(=O)O[C@@H]1C
-5.04 | CC(=O)N1CCC[C@H]1C(=O)N(C)[C@@H](CC(C)C)C(=O)N[C@@H]1C(=O)N[C@@H](CC(C)C)C(=O)N(C)[C@H](CC(C)C)C(=O)N(C)[C@H](CC(C)C)C(=O)N[C@H](C)C(=O)N[C@@H](CC(C)C)C(=O)N2CCC[C@@H]2C(=O)O[C@@H]1C
-5.48 | CC(=O)N1CCC[C@H]1C(=O)N(C)[C@@H](CC(C)C)C(=O)N[C@@H]1C(=O)N[C@H](CC(C)C)C(=O)N(C)[C@@H](CC(C)C)C(=O)N(C)[C@@H](CC(C)C)C(=O)N(C)[C@H](C)C(=O)N[C@H](CC(C)C)C(=O)N2CCC[C@H]2C(=O)O[C@@H]1C
-6.05 | CC(=O)N1CCC[C@H]1C(=O)N(C)[C@@H](CC(C)C)C(=O)N[C@@H]1C(=O)N(C)[C@@H](CC(C)C)C(=O)N(C)[C@H](CC(C)C)C(=O)N[C@H](CC(C)C)C(=O)N(C)[C@@H](C)C(=O)N[C@H](CC(C)C)C(=O)N2CCC[C@H]2C(=O)O[C@@H]1C
-5.96 | CC(=O)N1CCC[C@@H]1C(=O)N(C)[C@H](CC(C)C)C(=O)N[C@@H]1C(=O)N[C@@H](CC(C)C)C(=O)N(C)[C@@H](CC(C)C)C(=O)N[C@@H](CC(C)C)C(=O)N(C)[C@@H](C)C(=O)N[C@H](CC(C)C)C(=O)N2CCC[C@@H]2C(=O)O[C@@H]1C
-5.63 | CC(=O)N1CCC[C@H]1C(=O)N(C)[C@@H](CC(C)C)C(=O)N[C@@H]1C(=O)N[C@@H](CC(C)C)C(=O)N[C@@H](CC(C)C)C(=O)N[C@H](CC(C)C)C(=O)N(C)[C@H](C)C(=O)N[C@@H](CC(C)C)C(=O)N2CCC[C@H]2C(=O)O[C@@H]1C
-5.46 | CC(=O)N1CCC[C@@H]1C(=O)N(C)[C@H](CC(C)C)C(=O)N[C@@H]1C(=O)N(C)[C@@H](CC(C)C)C(=O)N[C@@H](CC(C)C)C(=O)N(C)[C@@H](CC(C)C)C(=O)N(C)[C@H](C)C(=O)N[C@@H](CC(C)C)C(=O)N2CCC[C@H]2C(=O)O[C@@H]1C
-6.39 | CC(=O)N1CCC[C@H]1C(=O)N(C)[C@@H](CC(C)C)C(=O)N[C@@H]1C(=O)N[C@@H](CC(C)C)C(=O)N[C@@H](CC(C)C)C(=O)N[C@H](CC(C)C)C(=O)N[C@H](C)C(=O)N[C@H](CC(C)C)C(=O)N2CCC[C@H]2C(=O)O[C@@H]1C
-6.10 | CC(=O)N1CCC[C@H]1C(=O)N[C@@H]1C(=O)N(C)[C@H](CC(C)C)C(=O)N[C@H](CC(C)C)C(=O)N[C@@H](CC(C)C)C(=O)N(C)[C@H](CC(C)C)C(=O)N[C@@H](C)C(=O)N[C@@H](CC(C)C)C(=O)N2CCC[C@@H]2C(=O)O[C@@H]1C

Excerpt, the opening 2 entries:

| structure (SMILES) | PAMPA (log10 cm/s) |
|---|---|
| CC(=O)N1CCC[C@H]1C(=O)N(C)[C@H](CC(C)C)C(=O)N[C@@H]1C(=O)N[C@@H](CC(C)C)C(=O)N[C@@H](CC(C)C)C(=O)N[C@H](CC(C)C)C(=O)N[C@@H](C)C(=O)N[C@@H](CC(C)C)C(=O)N2CCC[C@@H]2C(=O)O[C@@H]1C | -6.57 |
| CC(=O)N1CCC[C@@H]1C(=O)N(C)[C@@H](CC(C)C)C(=O)N[C@@H]1C(=O)N(C)[C@H](CC(C)C)C(=O)N[C@H](CC(C)C)C(=O)N(C)[C@H](CC(C)C)C(=O)N(C)[C@H](C)C(=O)N[C@H](CC(C)C)C(=O)N2CCC[C@H]2C(=O)O[C@@H]1C | -5.71 |